Assays:
[1] = molecular target: Alpha-2B adrenergic receptor (Homo sapiens, UniProt P18089)
[2] = molecular target: Alpha-2C adrenergic receptor (Homo sapiens, UniProt P18825); type: functional
[3] = molecular target: 3',5'-cyclic-AMP phosphodiesterase 4D (Homo sapiens, UniProt Q08499); type: functional
[4] = molecular target: Delta-type opioid receptor (Homo sapiens, UniProt P41143)
[5] = molecular target: Kappa-type opioid receptor (Homo sapiens, UniProt P41145)
[6] = molecular target: 5-hydroxytryptamine receptor 2C (Homo sapiens, UniProt P28335)
[7] = molecular target: Beta-1 adrenergic receptor (Homo sapiens, UniProt P08588); type: functional
[8] = molecular target: D(1A) dopamine receptor (Homo sapiens, UniProt P21728); type: functional, cell-based
[9] = molecular target: T1, 5-hydroxytryptamine receptor 1A (Homo sapiens, UniProt P08908); type: functional, cell-based
[10] = molecular target: T1, 5-hydroxytryptamine receptor 1A; type: functional, cell-based; remark: listed apart in the source
[11] = molecular target: Muscarinic acetylcholine receptor M1 (Homo sapiens, UniProt P11229); type: functional, cell-based
[12] = molecular target: Glutamate receptor ionotropic, NMDA 1 (Rattus norvegicus, UniProt P35439)
[13] = molecular target: Sodium-dependent dopamine transporter (Homo sapiens, UniProt Q01959)
[14] = molecular target: Sodium-dependent noradrenaline transporter (Homo sapiens, UniProt P23975)
[15] = molecular target: T2, Mu-type opioid receptor (Homo sapiens, UniProt P35372); assay: biochemical; type: functional
[16] = molecular target: T2, Mu-type opioid receptor
[17] = molecular target: T3, Muscarinic acetylcholine receptor M2 (Homo sapiens, UniProt P08172); type: functional, cell-based
[18] = molecular target: T3, Muscarinic acetylcholine receptor M2; type: functional, cell-based; remark: listed apart in the source
[19] = molecular target: T3, Muscarinic acetylcholine receptor M2
[20] = molecular target: T4, Amine oxidase [flavin-containing] A (Homo sapiens, UniProt P21397); type: functional
[21] = molecular target: T4, Amine oxidase [flavin-containing] A; type: functional; remark: listed apart in the source
[22] = molecular target: Synaptic vesicular amine transporter (Rattus norvegicus, UniProt Q01827); type: functional
[23] = molecular target: D(3) dopamine receptor (Homo sapiens, UniProt P35462)
[24] = molecular target: T3, Muscarinic acetylcholine receptor M2; remark: listed apart in the source
[25] = molecular target: T5, Alpha-2A adrenergic receptor (Homo sapiens, UniProt P08913); type: functional, cell-based
[26] = molecular target: T5, Alpha-2A adrenergic receptor; type: functional, cell-based; remark: listed apart in the source
[27] = molecular target: T5, Alpha-2A adrenergic receptor
[28] = molecular target: T5, Alpha-2A adrenergic receptor; remark: listed apart in the source
[29] = molecular target: T5, Alpha-2A adrenergic receptor; remark: listed apart in the source
[30] = molecular target: Voltage-gated inwardly rectifying potassium channel KCNH2 (Homo sapiens, UniProt Q12809)
Further: assay procedure not described here.

Amino acid sequences for entries named in this document (tags omitted). A change or cut given only in a name is not applied to a line headed by its entry.
UniProt P18825, whole entry: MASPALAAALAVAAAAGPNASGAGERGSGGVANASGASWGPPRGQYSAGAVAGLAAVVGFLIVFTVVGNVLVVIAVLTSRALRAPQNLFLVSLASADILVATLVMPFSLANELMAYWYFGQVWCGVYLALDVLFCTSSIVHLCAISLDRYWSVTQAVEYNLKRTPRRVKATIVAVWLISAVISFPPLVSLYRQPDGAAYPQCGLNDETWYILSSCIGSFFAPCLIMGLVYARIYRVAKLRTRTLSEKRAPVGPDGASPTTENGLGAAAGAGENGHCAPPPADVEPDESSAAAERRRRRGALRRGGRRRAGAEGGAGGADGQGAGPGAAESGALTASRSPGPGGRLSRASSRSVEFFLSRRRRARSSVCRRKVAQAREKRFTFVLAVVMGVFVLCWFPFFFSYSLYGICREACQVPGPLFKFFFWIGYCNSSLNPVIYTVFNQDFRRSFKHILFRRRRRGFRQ
UniProt Q08499: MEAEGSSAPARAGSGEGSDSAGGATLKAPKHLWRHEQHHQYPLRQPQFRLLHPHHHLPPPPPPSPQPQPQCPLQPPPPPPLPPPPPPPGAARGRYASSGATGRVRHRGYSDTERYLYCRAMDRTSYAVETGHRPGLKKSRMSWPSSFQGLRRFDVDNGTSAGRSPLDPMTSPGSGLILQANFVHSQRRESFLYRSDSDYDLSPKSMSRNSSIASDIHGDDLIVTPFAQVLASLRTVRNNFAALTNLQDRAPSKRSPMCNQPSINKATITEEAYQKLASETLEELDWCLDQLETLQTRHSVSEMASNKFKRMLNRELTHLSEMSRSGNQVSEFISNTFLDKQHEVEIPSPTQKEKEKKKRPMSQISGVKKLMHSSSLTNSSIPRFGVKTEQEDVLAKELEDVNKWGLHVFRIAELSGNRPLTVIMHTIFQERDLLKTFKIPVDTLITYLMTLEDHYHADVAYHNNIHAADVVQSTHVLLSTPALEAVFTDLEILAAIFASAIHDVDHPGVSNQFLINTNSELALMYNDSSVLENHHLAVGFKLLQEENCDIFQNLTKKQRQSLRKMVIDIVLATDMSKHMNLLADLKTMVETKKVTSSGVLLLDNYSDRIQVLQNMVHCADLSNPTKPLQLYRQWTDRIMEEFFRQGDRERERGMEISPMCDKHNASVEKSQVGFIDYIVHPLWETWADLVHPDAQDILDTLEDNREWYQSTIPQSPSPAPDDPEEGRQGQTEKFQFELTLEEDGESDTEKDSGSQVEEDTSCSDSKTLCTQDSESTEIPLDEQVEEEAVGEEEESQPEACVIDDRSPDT
UniProt P41145: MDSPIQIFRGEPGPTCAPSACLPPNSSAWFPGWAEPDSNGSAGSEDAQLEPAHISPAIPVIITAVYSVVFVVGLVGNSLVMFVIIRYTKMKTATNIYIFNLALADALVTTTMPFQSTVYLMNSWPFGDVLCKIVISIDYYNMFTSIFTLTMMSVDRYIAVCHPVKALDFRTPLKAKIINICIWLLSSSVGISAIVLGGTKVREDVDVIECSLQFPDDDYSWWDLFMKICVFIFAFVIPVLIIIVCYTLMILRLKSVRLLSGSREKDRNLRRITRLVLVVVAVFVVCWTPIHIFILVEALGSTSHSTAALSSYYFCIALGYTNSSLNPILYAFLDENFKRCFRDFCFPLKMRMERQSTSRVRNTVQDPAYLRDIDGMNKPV
UniProt P28335: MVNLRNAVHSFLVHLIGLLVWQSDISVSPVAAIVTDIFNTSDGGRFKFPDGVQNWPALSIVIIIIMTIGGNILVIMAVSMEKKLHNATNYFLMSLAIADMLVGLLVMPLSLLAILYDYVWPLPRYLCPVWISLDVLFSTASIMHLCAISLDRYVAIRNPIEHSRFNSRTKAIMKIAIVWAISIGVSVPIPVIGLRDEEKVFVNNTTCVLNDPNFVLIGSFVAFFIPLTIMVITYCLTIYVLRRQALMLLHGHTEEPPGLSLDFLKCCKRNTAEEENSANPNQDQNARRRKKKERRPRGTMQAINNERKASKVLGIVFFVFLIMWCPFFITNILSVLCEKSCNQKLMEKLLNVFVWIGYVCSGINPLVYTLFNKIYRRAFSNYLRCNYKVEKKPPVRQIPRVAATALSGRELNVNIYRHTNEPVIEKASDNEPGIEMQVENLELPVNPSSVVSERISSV
UniProt P08588, whole entry: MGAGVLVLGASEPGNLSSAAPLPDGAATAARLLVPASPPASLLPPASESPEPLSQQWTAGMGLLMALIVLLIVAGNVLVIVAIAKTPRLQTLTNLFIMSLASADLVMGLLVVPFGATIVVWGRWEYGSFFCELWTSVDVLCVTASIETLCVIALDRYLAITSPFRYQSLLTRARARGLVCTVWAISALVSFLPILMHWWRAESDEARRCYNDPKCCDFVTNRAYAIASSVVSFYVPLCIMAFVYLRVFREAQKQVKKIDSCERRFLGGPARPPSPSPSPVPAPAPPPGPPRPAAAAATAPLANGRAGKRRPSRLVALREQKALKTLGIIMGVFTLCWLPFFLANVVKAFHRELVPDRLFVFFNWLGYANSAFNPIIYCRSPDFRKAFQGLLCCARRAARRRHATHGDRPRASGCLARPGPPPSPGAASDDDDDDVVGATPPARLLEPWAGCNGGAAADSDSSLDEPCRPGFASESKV
UniProt P21728, whole entry: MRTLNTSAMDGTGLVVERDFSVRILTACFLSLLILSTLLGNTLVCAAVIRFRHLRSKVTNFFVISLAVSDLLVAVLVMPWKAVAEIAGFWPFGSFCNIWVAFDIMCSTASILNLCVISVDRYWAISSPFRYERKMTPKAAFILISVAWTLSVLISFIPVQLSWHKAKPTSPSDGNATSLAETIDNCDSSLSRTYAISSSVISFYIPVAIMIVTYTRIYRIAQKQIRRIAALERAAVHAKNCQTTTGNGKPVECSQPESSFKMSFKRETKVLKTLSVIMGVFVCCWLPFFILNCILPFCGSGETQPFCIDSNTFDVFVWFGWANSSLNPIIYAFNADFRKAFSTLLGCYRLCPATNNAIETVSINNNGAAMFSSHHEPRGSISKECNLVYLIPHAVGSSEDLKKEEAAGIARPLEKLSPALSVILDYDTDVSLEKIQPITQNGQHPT
UniProt P11229: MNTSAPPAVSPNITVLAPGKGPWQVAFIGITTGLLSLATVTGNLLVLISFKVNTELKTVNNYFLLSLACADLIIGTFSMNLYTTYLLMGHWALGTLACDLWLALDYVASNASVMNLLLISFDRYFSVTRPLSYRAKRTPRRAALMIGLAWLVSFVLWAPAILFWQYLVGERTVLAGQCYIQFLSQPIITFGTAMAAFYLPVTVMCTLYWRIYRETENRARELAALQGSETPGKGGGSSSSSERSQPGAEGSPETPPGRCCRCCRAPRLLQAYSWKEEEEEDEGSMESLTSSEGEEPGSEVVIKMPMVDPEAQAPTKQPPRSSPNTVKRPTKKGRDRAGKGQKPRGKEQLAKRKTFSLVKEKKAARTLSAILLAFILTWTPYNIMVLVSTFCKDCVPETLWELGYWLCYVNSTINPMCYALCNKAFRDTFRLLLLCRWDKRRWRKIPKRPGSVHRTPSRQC
UniProt Q01959, whole entry: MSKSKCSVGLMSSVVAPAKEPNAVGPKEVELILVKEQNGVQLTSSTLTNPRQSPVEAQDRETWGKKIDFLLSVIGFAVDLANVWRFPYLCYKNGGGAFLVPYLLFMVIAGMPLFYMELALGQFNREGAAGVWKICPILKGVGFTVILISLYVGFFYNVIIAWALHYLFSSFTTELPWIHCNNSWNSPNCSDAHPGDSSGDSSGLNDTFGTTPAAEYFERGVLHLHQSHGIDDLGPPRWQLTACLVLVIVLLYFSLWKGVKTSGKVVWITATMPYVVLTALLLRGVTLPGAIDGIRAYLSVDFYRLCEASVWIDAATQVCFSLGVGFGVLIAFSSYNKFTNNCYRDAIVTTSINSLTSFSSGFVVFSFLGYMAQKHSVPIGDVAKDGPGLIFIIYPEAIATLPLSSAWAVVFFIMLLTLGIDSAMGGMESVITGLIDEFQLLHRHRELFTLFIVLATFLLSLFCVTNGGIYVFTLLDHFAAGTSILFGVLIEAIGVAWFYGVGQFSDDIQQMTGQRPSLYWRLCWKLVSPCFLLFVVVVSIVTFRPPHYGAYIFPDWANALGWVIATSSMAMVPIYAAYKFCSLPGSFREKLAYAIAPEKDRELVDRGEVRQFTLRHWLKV
UniProt P21397, whole entry: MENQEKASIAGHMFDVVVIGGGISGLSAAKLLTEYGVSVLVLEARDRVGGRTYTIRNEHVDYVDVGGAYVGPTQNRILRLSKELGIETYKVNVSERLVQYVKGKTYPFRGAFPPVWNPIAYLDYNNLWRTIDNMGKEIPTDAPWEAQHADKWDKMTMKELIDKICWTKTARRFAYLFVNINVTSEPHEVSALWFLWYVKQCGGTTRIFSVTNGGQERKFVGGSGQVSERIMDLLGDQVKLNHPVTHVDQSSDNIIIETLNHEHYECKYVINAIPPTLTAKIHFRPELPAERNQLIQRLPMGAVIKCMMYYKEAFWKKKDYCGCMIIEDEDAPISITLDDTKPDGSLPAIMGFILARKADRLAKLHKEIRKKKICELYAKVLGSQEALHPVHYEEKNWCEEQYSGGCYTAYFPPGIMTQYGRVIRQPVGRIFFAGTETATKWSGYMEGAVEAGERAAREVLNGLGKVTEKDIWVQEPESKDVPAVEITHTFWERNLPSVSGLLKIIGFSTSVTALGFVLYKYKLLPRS
UniProt P08913, whole entry: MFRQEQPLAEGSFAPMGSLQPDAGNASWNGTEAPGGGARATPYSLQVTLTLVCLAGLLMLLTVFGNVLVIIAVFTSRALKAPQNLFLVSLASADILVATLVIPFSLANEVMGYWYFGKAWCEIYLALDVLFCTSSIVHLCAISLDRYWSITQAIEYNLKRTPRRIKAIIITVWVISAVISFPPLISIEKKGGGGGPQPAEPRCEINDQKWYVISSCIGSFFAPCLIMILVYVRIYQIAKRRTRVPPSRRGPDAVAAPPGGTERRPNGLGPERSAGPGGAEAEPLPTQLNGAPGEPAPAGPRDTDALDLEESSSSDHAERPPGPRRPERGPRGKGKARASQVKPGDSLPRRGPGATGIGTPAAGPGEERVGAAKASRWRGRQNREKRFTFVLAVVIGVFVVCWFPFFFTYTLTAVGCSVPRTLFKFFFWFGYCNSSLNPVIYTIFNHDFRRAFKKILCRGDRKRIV
UniProt Q12809: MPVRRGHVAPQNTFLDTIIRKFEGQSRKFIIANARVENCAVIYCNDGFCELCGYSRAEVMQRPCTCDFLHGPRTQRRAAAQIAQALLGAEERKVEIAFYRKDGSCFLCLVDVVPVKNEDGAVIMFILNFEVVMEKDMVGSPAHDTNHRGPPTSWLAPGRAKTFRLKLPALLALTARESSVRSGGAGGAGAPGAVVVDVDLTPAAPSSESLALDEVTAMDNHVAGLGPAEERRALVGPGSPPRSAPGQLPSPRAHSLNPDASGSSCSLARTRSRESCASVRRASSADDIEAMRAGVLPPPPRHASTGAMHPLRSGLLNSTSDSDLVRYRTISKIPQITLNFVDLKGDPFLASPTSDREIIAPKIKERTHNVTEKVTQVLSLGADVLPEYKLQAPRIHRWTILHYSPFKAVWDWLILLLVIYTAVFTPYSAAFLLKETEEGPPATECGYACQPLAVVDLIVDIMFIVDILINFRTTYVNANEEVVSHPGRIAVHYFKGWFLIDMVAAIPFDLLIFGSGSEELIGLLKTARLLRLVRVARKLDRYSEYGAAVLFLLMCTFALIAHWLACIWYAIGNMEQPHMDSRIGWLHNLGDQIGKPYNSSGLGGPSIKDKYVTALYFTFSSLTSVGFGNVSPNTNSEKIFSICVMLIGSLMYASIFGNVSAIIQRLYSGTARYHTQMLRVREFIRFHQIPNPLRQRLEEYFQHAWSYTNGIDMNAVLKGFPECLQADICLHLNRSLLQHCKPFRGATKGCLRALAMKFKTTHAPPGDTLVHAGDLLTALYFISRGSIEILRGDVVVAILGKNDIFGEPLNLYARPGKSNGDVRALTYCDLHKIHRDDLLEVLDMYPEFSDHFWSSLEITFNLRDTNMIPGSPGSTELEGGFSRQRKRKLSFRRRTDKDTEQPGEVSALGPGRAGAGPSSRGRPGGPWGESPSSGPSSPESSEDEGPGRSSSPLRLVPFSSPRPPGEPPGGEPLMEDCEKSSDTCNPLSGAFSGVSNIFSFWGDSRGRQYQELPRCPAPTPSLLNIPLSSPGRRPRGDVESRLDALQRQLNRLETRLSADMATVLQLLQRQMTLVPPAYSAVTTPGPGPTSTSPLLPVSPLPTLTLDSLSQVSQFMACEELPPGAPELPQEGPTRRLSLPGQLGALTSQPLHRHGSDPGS

Question: Which results are given for `COc1ccccc1N1CCN(CCCNc2cc(=O)n(C)c(=O)n2C)CC1`?
Answer: AC50 [1]: 9.8 µM; AC50 [2]: 2.7 µM

Question: How did the AC50 [3] turn out when `CN1CC(=O)N2[C@H](c3ccc4c(c3)OCO4)c3[nH]c4ccccc4c3C[C@@H]2C1=O` was run?
Answer: > 30 µM

Question: What does the source list for `C=C1CC[C@@]2(O)[C@H]3Cc4ccc(O)c5c4[C@@]2(CCN3CC2CC2)[C@H]1O5`?
Answer: AC50 [4]: 0.082 µM; AC50 [5]: 0.018 µM

Question: `COc1ccc2cccc(CCNC(C)=O)c2c1` [AGOMELATINE] was tested. Which AC50 [6] did it give?
Answer: 5.2 µM

Question: How did the AC50 [1] turn out when `CN1CCc2cccc3c2[C@H]1Cc1ccc(O)c(O)c1-3` [APOMORPHINE] was run?
Answer: 2.7 µM

Question: Which results are given for `CNC[C@H](O)c1ccc(O)c(O)c1` [EPINEPHRINE]?
Answer: AC50 [7]: 0.97 µM; AC50 [8]: 0.032 µM; AC50 [9]: > 30 µM; AC50 [10]: > 30 µM

Question: For `C[N+]1(C)CCC(OC(=O)C(O)(c2ccccc2)C2CCCC2)C1` (centres undefined) [GLYCOPYRRONIUM BROMIDE], which AC50 [11] is on record?
Answer: > 30 µM

Question: `CN(C)CCCN1c2ccccc2CCc2ccccc21` [IMIPRAMINE] was tested. Which AC50 [12] did it give?
Answer: > 10 µM

Question: What about the AC50 [13] of the same compound?
Answer: > 10 µM

Question: And the AC50 [14]?
Answer: 0.083 µM

Question: `CN1CC[C@]23CCCC[C@H]2[C@H]1Cc1ccc(O)cc13` [LEVORPHANOL] was tested. Which AC50 [15] did it give?
Answer: 3.3 µM

Question: What about the AC50 [16] of the same compound?
Answer: 6.4 µM

Question: `CCN(CC)CCNC(=O)c1cc(Cl)c(N)cc1OC` [METOCLOPRAMIDE] was tested. Which AC50 [17] did it give?
Answer: > 30 µM

Question: What about the AC50 [18] of the same compound?
Answer: > 30 µM

Question: And the AC50 [19]?
Answer: > 10 µM

Question: For `NNCCc1ccccc1` [PHENELZINE], which AC50 [20] is on record?
Answer: 1.64 µM

Question: What about the AC50 [21] of the same compound?
Answer: 0.17 µM

Question: For `COC(=O)[C@H]1[C@H]2C[C@@H]3c4[nH]c5cc(OC)ccc5c4CCN3C[C@H]2C[C@@H](OC(=O)c2cc(OC)c(OC)c(OC)c2)[C@@H]1OC` [RESERPINE], which AC50 [22] is on record?
Answer: 0.001 µM

Question: Which AC50 [23] does the source give for `CCN1CCCC1CNC(=O)c1cc(S(N)(=O)=O)ccc1OC` (centres undefined) [SULPIRIDE] here?
Answer: 0.11 µM

Question: Which AC50 [1] does the source give for `CCN(CC)C(=O)N[C@H]1C[C@@H]2c3cccc4[nH]cc(c34)C[C@H]2N(C)C1` [TERGURIDE] here?
Answer: 0.0055 µM

Question: Which AC50 [17] does the source give for `CCCCCCOc1nsnc1C1=CCCN(C)C1` [XANOMELINE] here?
Answer: > 10 µM

Question: And the AC50 [18]?
Answer: 0.58 µM

Question: What about the AC50 [24] of the same compound?
Answer: 0.111 µM

Question: `O=C1Cc2cc(CCN3CCN(c4nsc5ccccc45)CC3)c(Cl)cc2N1` [ZIPRASIDONE] was tested. Which AC50 [25] did it give?
Answer: > 10 µM

Question: What about the AC50 [26] of the same compound?
Answer: > 10 µM

Question: And the AC50 [27]?
Answer: 0.895 µM

Question: What about the AC50 [28] of the same compound?
Answer: 3.15 µM

Question: What about the AC50 [29] of the same compound?
Answer: 0.9 µM

Question: And the AC50 [30]?
Answer: 1.23 µM

Reference: ChEMBL document CHEMBL5291721, “A preclinical secondary pharmacology resource illuminates target-adverse drug reaction associations of marketed drugs” (Nat Commun, 2023)
